# Values quoted from earlier work in patent US9872875B2, “Component and method for treating viral disease” (Institut Pasteur of Shanghai, Chinese Academy of Sciences, priority 2012, dated 2018).
# Target: T1, P2X4 receptor (Homo sapiens, UniProt Q99571)
# T1 sequence (Q99571 1-388): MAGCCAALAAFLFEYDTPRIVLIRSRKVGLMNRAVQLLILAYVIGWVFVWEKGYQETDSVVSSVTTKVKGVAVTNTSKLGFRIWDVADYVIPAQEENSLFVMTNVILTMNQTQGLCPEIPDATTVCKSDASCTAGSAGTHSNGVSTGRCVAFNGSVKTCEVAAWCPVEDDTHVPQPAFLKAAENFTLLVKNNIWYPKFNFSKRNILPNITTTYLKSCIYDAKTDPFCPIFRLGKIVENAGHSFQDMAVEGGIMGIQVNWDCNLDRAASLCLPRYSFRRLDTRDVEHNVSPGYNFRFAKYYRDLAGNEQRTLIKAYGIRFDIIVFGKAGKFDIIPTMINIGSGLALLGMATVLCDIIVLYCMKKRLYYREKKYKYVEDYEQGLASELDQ
# Details: Table 8, antagonists; cited from earlier work
substance,measurement,value
trinitrophenol-ATP [TNP-ATP],P2X receptors 4,+ (+: inhibitory concentration >300 nM)
